Data taken from patent US20260258049A1, “Molecules and Methods Related to Treatment of Uncontrolled Cellular Proliferation” (ST. JUDE CHILDREN'S RESEARCH HOSPITAL, priority 2019, published 2026).

Protein sequences, listed by entry. Tags and fused reporters are not part of them.
UniProt P15170, whole entry: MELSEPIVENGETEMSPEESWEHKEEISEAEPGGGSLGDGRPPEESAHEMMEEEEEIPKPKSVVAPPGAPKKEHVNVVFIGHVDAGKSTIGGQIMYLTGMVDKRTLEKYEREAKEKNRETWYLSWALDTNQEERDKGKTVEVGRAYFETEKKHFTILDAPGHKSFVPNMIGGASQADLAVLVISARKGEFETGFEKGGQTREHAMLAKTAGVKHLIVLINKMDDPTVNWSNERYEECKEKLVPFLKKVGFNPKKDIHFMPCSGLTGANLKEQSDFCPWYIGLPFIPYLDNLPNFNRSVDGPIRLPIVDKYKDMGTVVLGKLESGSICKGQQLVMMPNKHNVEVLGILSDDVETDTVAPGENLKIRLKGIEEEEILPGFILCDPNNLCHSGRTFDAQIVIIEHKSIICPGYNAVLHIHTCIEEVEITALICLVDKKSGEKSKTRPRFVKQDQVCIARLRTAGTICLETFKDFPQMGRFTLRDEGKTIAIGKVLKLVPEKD

What was measured:
[1] = test system: Janus kinases and GSPT1; assay: In vivo pharmacodynamics, immunoblotting; conditions: 10, 30, and 100 mg/kg i.p., 2 daily doses
[2] = biological target: GSPT1 (Homo sapiens, UniProt P15170); assay: Immunoblot protein degradation in MHH-CALL-4 cells; assay type: cell-based
[3] = test system: MHH-CALL-4-CRBN-KD; assay: Cytotoxicity assay in CRBN knockdown cells; assay type: cell-based, human
[4] = test system: JAK-STAT5 signaling pathway; assay: Phosphoflow analysis in MHH-CALL-4 cells with or without TSLP; conditions: 1 μM, one hour before TSLP 25 ng/mL for 30 minutes
[5] = test system: MHH-CALL-4; assay: Cytotoxicity assay (resazurin, 72 hours); assay type: cell-based, human
[6] = In vivo pharmacokinetic (PK) study; conditions: 30 and 100 mg/kg intraperitoneal
[7] = test system: CRLF2r B-ALL xenograft; assay: Xenograft in vivo preclinical efficacy study; design: species or system mouse
[8] = test system: JAK2 and STAT5 phosphorylation; assay: In vivo pharmacodynamics, phosphoflow cytometry; conditions: 10, 30, and 100 mg/kg i.p., 2 daily doses

CCCn1cc(-c2nc(Nc3ccc(C(=O)NCCCCNc4cccc5c4C(=O)N(C4CCC(=O)NC4=O)C5=O)cc3)nc3[nH]ccc23)cn1 (centres unmarked) [SJ000988497]
JAK/GSPT1 degradation in vivo [1]: near maximal at the 30 mg/kg dose | extent of degradation of GSPT1 [2]: degradation of GSPT1 was observed | activity on CRISPR/Cas9 knockdown of CRBN [3]: abolished | JAK inhibition (phosphoflow) [4]: comparable JAK inhibition | activity on co-treatment with 30 μM of lenalidomide [5]: abolished | fold activity compared to each of the parent compounds, ruxolitinib and pomalidomide ([5]; CRLF2r MHH-CALL-4 cells): greater than 70,000 fold | EC50 ([5]; read-out: HHCALL4 (nM), MHHCALL4 EC50, Table 6, no star): 812 nM | plasma concentration after 24 hours [6]: well above the compounds cellular EC50 value | tolerability (weight, blood counts) ([7]; 28-day period): well tolerated with no weight loss or perturbation in blood counts | spleen size and tumor burden in PDX model ([7]; compound 7 30 mg/kg i.p. daily): reduced spleen size and tumor burden | JAK2 and STAT5 phosphorylation in vivo [8]: dose dependent inhibition
